Measured values published in patent EP1200059B1, “SKIN CARE COMPOSITION” (UNILEVER PLC, priority 1999, dated 2001).

Columns and labels:
[1] = molecular target: T1, lecithin retinol acyl transferase (LRAT) (Bos taurus, UniProt Q9BGL2); experiment: in vitro Microsomal Assay of retinol esterification, LRAT catalysed (retinyl laurate formation); details: for % INHIB. LRAT: Table 5, 100 μM; for % INHIBITION, LRAT: Table 7, 100 µM
T1 sequence (Q9BGL2 1-230): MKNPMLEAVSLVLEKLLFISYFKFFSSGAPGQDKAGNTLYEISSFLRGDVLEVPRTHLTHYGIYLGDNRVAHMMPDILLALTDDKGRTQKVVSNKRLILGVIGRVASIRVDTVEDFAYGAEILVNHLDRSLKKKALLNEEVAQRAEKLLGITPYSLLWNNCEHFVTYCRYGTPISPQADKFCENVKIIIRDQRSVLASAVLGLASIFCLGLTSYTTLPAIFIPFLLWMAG

[2] = system: acyl CoA retinol transferase (ARAT); experiment: in vitro Microsomal Assay of retinol esterification, ARAT catalysed (retinyl palmitate formation); details: Table 5; 10 μM

% INHIB. LRAT [1] [%] | % INHIBITION, LRAT [1] [%] | Compound | further results
0 |  | dimethyl cocamine oxide | 
0 |  | cocoglutamate | 
 | 9 | Dimethyl ionone | 
 |  | CCCCCCCC/C=C\CCCCCCCC1=NCCN1CCO [oleyl hydroxyethyl imidazoline] | % INHIB. ARAT [2]: 14%
 | 10 | Delta methyl ionone | 
